Reference: patent publication US20260285875A1, “INHIBITORS OF PARG” (858 Therapeutics, Inc., priority 2023, published 2026)

Amino acid sequences for entries named in this document (tags omitted).
UniProt Q86W56, whole entry: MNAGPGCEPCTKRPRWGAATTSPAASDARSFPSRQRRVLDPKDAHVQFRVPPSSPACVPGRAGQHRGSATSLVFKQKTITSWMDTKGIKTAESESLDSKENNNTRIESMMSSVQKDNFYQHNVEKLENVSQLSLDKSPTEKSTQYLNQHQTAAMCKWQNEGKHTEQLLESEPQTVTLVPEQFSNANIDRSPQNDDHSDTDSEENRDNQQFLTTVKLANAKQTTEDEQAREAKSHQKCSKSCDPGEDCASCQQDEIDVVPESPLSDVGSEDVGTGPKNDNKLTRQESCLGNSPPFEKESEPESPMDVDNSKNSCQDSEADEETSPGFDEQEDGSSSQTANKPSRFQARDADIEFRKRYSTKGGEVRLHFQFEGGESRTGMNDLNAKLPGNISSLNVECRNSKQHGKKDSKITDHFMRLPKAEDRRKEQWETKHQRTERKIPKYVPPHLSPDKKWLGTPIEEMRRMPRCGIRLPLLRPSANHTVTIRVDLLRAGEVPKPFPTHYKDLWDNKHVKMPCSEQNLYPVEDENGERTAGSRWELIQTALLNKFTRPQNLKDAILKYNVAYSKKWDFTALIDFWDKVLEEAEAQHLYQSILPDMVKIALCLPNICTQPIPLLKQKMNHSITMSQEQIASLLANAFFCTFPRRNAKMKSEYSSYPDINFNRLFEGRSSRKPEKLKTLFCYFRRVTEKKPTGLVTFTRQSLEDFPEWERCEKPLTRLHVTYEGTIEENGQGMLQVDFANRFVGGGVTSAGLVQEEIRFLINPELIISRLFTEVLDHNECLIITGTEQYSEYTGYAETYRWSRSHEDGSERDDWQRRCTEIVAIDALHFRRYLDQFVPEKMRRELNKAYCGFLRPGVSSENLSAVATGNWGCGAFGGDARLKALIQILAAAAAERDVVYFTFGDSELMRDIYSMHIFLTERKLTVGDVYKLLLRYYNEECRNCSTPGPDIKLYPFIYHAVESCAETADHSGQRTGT

Molecular target: cellular PARG (Homo sapiens, UniProt Q86W56)
Experiment: Nuclear PAR accumulation assay (immunofluorescence high-content imaging, MMS-treated HeLa cells)
Conditions: read-out: PAR Accumulation IC50, 1 hour compound then MMS 50 μg/mL for an additional hour

`C[C@@H]1[C@H](CO)N=C2N(Cc3cnn(C)c3)C(=O)c3cc(S(=O)(=O)NC4(C)CC4)ccc3N21` [Example 294, (1R,2R)-2-(hydroxymethyl)-1-methyl-4-((1-methyl-1H-pyrazol-4-yl)methyl)-N-(1-methylcyclopropyl)-5-oxo-1,2,4,5-tetrahydroimidazo[1,2-a]quinazoline-7-sulfonamide] showed an IC50 of 100 to 1000 nM.

`COc1ccc(-c2cc(S(=O)(=O)NC3(C)CC3)cc3c2N2CC(C)(C)N=C2N(C)C3=O)cn1` showed an IC50 of 100 to 1000 nM.
